Earlier results in US20220096505A1, “PHARMACEUTICAL COMPOSITION, METHODS FOR TREATING AND USES THEREOF” (Boehringer Ingelheim International GmbH, priority 2011, published 2022).

System: SGLT
Conditions: leading to a decrease in blood glucose concentrations and to glucosuria; cited from earlier work

O=C(CCc1ccc(O)cc1)c1c(O)cc(O)cc1O[C@@H]1O[C@H](CO)[C@@H](O)[C@H](O)[C@H]1O [phlorizin]
effect on reuptake of glucose from the glomerular filtrate into the blood: partially inhibit the reuptake of glucose
